Measured values published in patent publication US6962931B2, “Self-emulsifying formulations of cholesteryl ester transfer protein inhibitors” (Pfizer Inc., priority 2001, dated 2005).

Assay: Equilibrium solubility in excipients, vehicles and emulsion preconcentrates
Format: physicochemical
Conditions: vehicle Caprylic acid
Procedure: The solubility of CETP inhibitors in excipients and in formulations was determined by adding an excess of compound to the medium in question. The mixture was agitated by rotation over a period of days at ambient temperature until the concentration in solution had reached an equilibrium as judged by similar measurements for consecutive time points. Concentrations were measured by filtration of aliquots with a PTFE syringe filter and assay by HPLC as described in Example 11.
The solubility of crystalline CETP inhibitors in representative vehicles was determined by adding an excess of compound to the vehicle in question. The mixture was agitated by rotation over a period of days at ambient temperature until the concentration in solution had reached equilibrium as judged by similar measurements for consecutive time points. Concentrations were measured by filtration of aliquots with a PTFE syringe filter and assayed by HPLC.
The concentrations of CETP inhibitor in each vehicle were assayed at intervals by dilution of aliquots into acetonitrile and gradient HPLC analysis on a Water Symmetry C-8 column (3.9×150 mm, 5 micron) at 30° C. at a flow rate of 1 mL/min. […] The detection method was UV absorbance at 210 nm.

CCOC(=O)N1c2ccc(C(F)(F)F)cc2[C@@H](N(Cc2cc(C(F)(F)F)cc(C(F)(F)F)c2)C(=O)OC)C[C@H]1CC [Compound A, [2R,4S] 4-[(3,5-bis-trifluoromethyl-benzyl)-methoxycarbonyl-amino]-2-ethyl-6-trifluoromethyl-3,4-dihydro-2H-quinoline-1-carboxylic acid ethyl ester]
Solubility: 145 mgA/ml
